Results published in USRE47689E1, “Compounds for treating spinal muscular atrophy” (PTC Therapeutics, Inc., priority 2011, dated 2019).

Experiments:
[1] = tested on: SMN2 minigene (full length SMN2 minigene mRNA containing SMN2 exon 7); experiment: SMN2 minigene mRNA splicing RT-qPCR assay in cultured cells; assay type: cell-based; conditions: Homo sapiens, HEK293-H, 24 h, read-out: EC1.5x for production of full length SMN2 mRNA
Experimental: The reverse transcription-quantitative PCR-based (RT-qPCR) assay is used to quantify the level of the full length SMN2 minigene mRNA containing SMN2 exon 7 in a HEK293H cell line stably transfected with said minigene and treated with a test compound.
Protocol. HEK293H cells stably transfected with the SMN2-A minigene construct described above (10,000 cells/well) are seeded in 200 μL of cell culture medium (DMEM plus 10% FBS, with 200 μg/mL hygromycin) in 96-well flat-bottom plates and the plate is immediately swirled to ensure proper dispersal of cells, forming an even monolayer of cells. Cells are allowed to attach for at least 4-6 hours. […] A solution of test compound (1 μL, 200× in DMSO) is added to each cell-containing well and the plate is incubated for 24 hours in a cell culture incubator (37° C., 5% CO2, 100% relative humidity). 2 replicates are prepared for each test compound concentration. The cells are then lysed in Cells-To-Ct lysis buffer and the lysate is stored at −80° C.
The combination of these three oligonucleotides detects only SMN1 or SMN2 minigenes (RT-qPCR) and will not detect endogenous SMN1 or SMN2 genes. […]
The amplification efficiency E is calculated from the slope of the amplification curve for SMN2mini FL and GAPDH individually. The abundances of SMN2mini FL and GAPDH are then calculated as […], where Ct is the threshold value for each amplicon. […]

Smn protein = Smn protein assay in cultured cells (SMN HTRF); assay type: cell-based, human; conditions: SMA patient fibroblast cells, 48 hours, 7-point concentration data, fold increase relative to vehicle control (SMN HTRF)
Experimental: The SMN HTRF (homogeneous time resolved fluorescence) assay is used to quantify the level of Smn protein in SMA patient fibroblast cells treated with test compounds.
Protocol. Cells are thawed and cultured in DMEM-10% FBS for 72 hours. Cells are trypsinized, counted and resuspended to a concentration of 25,000 cells/mL in DMEM-10% FBS. […] 1 μL of test compound solution is transferred to cell-containing wells and cells are incubated for 48 hours in a cell culture incubator (37° C., 5% CO2, 100% relative humidity). Triplicate samples are set up for each test compound concentration. […] Fluorescence for each well of the plate at 665 nm and 620 nm is measured on an EnVision multilabel plate reader (Perkin-Elmer).
The normalized fluorescence signal is calculated for each sample, Blank and vehicle control well by dividing the signal at 665 nm by the signal at 620 nm. Normalizing the signal accounts for possible fluorescence quenching due to the matrix effect of the lysate. The ΔF value (a measurement of Smn protein abundance) for each sample well is calculated by subtracting the normalized average fluorescence for the Blank control wells from the normalized fluorescence for each sample well and then dividing this difference by the normalized average fluorescence for the Blank control wells. […]

In the case of `O=C(Nc1ccccc1)c1cc2ccc(N3CCNCC3)cc2oc1=O` [Cpd 3, 2-oxo-N-phenyl-7-(piperazin-1-yl)-2H-chromene-3-carboxamide trifluoroacetate], the EC (1.5-fold) [1] is reported as 1 to 3 µM and the “maximum fold (Fold) increase of Smn protein” value (Smn protein) is reported as “* (maximum fold increase of ≤1.2)”.

Structures can show the parent of a compound that is named as a salt.
